From patent US5872097A, “Oligopeptides with affinity to opioid receptors” (Pharmacia & Upjohn Aktiebolag, priority 1992, dated 1999)

Amino acid sequences for entries named in this document (tags omitted).
UniProt P33535, whole entry: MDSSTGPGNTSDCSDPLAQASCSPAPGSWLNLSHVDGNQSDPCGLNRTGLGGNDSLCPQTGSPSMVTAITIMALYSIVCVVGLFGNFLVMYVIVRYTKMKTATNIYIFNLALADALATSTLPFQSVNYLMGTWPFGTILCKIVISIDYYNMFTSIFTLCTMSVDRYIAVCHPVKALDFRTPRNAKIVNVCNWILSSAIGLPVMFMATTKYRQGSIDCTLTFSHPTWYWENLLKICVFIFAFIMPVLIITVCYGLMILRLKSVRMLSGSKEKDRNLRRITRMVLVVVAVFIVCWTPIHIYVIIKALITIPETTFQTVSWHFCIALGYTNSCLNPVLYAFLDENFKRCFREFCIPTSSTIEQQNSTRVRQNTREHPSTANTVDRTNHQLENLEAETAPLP

What was measured:
[1] = target: T1, μ-receptor ((3H)-DAGO binding site) (Rattus norvegicus, UniProt P33535); test: (3H)-DAGO binding assay, rat brain homogenates; settings: duplicate determination, one site model, EBDA/LIGAND
T1 construct: from tissue; host or cells: rat brain (homogenate / synaptic plasma membranes, whole brain without cerebellum)
From the text: (§1) In the experiments noted in FIGS. 3 and 4 and in Table 1 (^3 H)-(D-Ala^2,MePhe^4,Gly-ol^5)-enkephalin (DAGO or DAMGO) and (^3 H)-(D-Ala^2,D-Leu^5)-enkephalin (DADL) purchased from Amersham (Buckinghamshire, England) were used as radioligands in a binding assay performed as in Reg.
(§2) In the publication β-Casomorphins and Related Peptides Ed.

[2] = target: T2, δ-receptor ((3H)-DADL binding site) (Rattus norvegicus, UniProt P33533); test: (3H)-DADL binding assay, rat brain homogenates; settings: duplicate determination, one site model, EBDA/LIGAND
T2 construct: from tissue; host or cells: rat brain homogenate
From the text: as §1, §2

μ-receptor = target: T3, μ-receptor (Rattus norvegicus, UniProt P33535); test: (3H)-DAMGO displacement receptor assay; settings: displacement of (3H)-DAMGO specific binding, radioligand about 24 x 10^-10 M; LIGAND program
T3 construct: from tissue; host or cells: rat brain (homogenate / synaptic plasma membranes, whole brain without cerebellum)
Description: as §1
(§3) The peptides were employed for both receptor tests and bioassays on electrically stimulated guinea pig ileum strips (GPI-tests). The receptor assays were performed in the same manner as above with DAMGO as a radioligand to the μ-receptor. In the assays (^3 H)-DAMGO specific binding was displaced by the different tested substances (10^-5 M to 10^-10 M). […] Ups. […] The magnitude of activity in relation to a standard compound, normorphine was recorded.

[3] = tested on: electrically stimulated guinea pig ileum strips; settings: relative to standard compound normorphine = 1
Description: as §3

| SMILES | Ki [1] | Ki [2] | IC50 (μ-receptor) | GPI-test relative activity normorphine = 1 [3] |
| --- | --- | --- | --- | --- |
| CC(C)C[C@H](NC(=O)[C@H](Cc1ccccc1)NC(=O)[C@H](CO)NC(=O)[C@@H](N)Cc1ccc(O)cc1)C(=O)N[C@@H](CCC(=O)O)C(=O)O [Tyr-Ser-Phe-Leu-Glu] | 7400 nM | 5800 nM | 7.3 nM | < 0.01 |
| CSCC[C@H](NC(=O)[C@H](Cc1ccccc1)NC(=O)[C@@H](C)NC(=O)[C@@H](N)Cc1ccc(O)cc1)C(=O)O [Tyr-D-Ala-Phe-Met, reference compound] |  |  | 0.64 nM |  |
